Results reported in patent USRE37410E, “Controlled local delivery of chemotherapeutic agents for treating solid tumors” (priority 1999, dated 2001).

Experiments:
[1] = tested on: rat glioma cells; assay: Brain BCNU concentration relative to 90% lethal dose against rat glioma cells; format: cell-based; conditions: 8 mM brain concentration vs LD90 in rat glioma cells, preliminary studies
[2] = PCPP-SA (20:80), initially; cited from earlier work

O=NN(CCCl)C(=O)NCCCl [BCNU, 1,3-bis(2-chloroethyl)-1-nitrosourea]
brain concentration relative to 90% lethal dose in vitro [1]: two orders of magnitude higher | distance of distribution from the implant site [2]: up to 12 mm
